The values that follow come from ChEMBL document CHEMBL1629445, “Synthesis and evaluation of azetidinone analogues of combretastatin A-4 as tubulin targeting agents” (J Med Chem, 2010).

The species entered for this assay is Bos taurus. Description: Inhibition of bovine tubulin polymerization assessed as fold reduction Vmax of polymerization at 10 uM by spectrophotometry relative to untreated control.

`COc1ccc([C@@H]2[C@@H](c3ccccc3)C(=O)N2c2cc(OC)c(OC)c(OC)c2)cc1`: the fold change (FC) came out at 6.1.

Regarding `COc1ccc(/C=C\c2cc(OC)c(OC)c(OC)c2)cc1O` [COMBRETASTATIN A4], the fold change (FC) was 6.

With `COc1ccc([C@@H]2[C@@H](c3ccccc3)C(=O)N2c2cc(OC)c(OC)c(OC)c2)cc1O`, the fold change (FC) stood at 8.3.

Consider `COc1ccc([C@@H]2[C@@H](c3ccc(O)cc3)C(=O)N2c2cc(OC)c(OC)c(OC)c2)cc1O`, for which the fold change (FC) came out at 11.8.
